# Results: ChEMBL document CHEMBL1131033, “Selective endothelin A receptor antagonists. 4. Discovery and structure-activity relationships of stilbene acid and alcohol derivatives” (J Med Chem, 1998)
# The chains behind the UniProt entries cited, without tags or fusion partners.
# UniProt P26684, whole entry: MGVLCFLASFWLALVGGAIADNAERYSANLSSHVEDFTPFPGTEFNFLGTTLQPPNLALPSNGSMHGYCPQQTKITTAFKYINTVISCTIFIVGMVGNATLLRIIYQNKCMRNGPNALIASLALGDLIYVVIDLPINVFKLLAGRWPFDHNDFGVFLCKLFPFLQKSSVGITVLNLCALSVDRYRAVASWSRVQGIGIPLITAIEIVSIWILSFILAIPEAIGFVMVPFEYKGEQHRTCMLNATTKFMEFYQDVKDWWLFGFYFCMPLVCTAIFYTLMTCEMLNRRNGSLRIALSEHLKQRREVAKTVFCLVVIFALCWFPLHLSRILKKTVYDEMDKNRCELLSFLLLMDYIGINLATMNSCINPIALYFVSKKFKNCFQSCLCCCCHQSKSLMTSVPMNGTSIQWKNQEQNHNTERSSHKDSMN
# Biological target: Endothelin-1 receptor (Rattus norvegicus, UniProt P26684)
# Experiment: Concentration required to inhibit 50% Et-1 binding to endothelin A receptor in rat A-10 cells.
# Type: cell-based, A10
# Method in brief: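 Rat aortic smooth muscle A10 cells grown to confluence in DMEM with 10% FBS, harvested, and frozen. Nonspecific binding defined with 500 nM unlabeled ET-1. Bound ligand separated by vacuum filtration and gamma-counted. IC50 from curve fitting, usually in duplicate.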
row,IC50,SMILES
1,1000 nM,O=C(O)CCC(C(=O)c1cccc(OCc2ccccc2)c1)c1ccccc1 (stereo not drawn)
2,900 nM,O=C(O)/C(=C/c1cc(OCc2ccccc2)ccc1[N+](=O)[O-])c1ccccc1F
3,20000 nM,OC/C(=C/c1cccc(OCc2ccccc2)c1)c1ccccc1
